Values quoted from earlier work, collected in PMC9118553, “In Vivo Bioconcentration of 10 Anionic Surfactants in Rainbow Trout Explained by In Vitro Data on Partitioning and S9 Clearance” (Environmental Science & Technology, 2022).

Columns and labels:
[1] = ref REACH dossier; cited from earlier work
[2] = parameters: method as in REACH dossier; settings: method as noted in the cell (shake flask, solubility ratio, HPLC, BCFBAF, pH); ref REACH dossier; cited from earlier work

Q: With “4-((2-hydroxyethyl)amino)-3-pentaproenyl-4-oxobutanoate - sodium/triethanolamine” as the substance, how does the “Degradation information ~28d-sludge test (% degradable)” value [1] read?
A: Its value is 53%.

Q: What about the LogKow [2] of the same substance?
A: Its LogKow is 1.1.
